# Source: US20260385973A1, “CARBON MONOXIDE PROBE MOLECULES” (published 2026)
# Key:
# [1] = Quantum yield determination for fluorescent products (quinine sulfate reference)
# [2] = Stability of fluorescent products in serum
# [3] = Fluorescence properties (excitation/emission wavelengths, Stokes shift); details: for pH dependency of fluorescence: around physiological pH, 30 μM 22, 10 μM 25; for Fluorescence profile λem / Fluorescence profile λex: Table 4, this work
# [4] = Conversion of probe to fluorescent product on reaction with CO; details: CO gas; PBS, or DMA diluted with PBS
# HeLa cells [5] = experiment: Relative CO level in HeLa cells determined with 11a; details: 100 μM 11a
# HO-1 = experiment: Western blot for HO-1 in HeLa cells; details: 0.3 μM, 6 h
# COHb = COHb level determination in CO-treated mouse blood ex vivo
# [6] = CO-sensing reaction kinetics of CO probe molecules (fluorescence); details: role: substrate, probe 10 μM; for Reaction kinetics towards CO (in words): CO 200 μM, PBS; for 2nd order reaction rate constant towards CO: second reactant CO (100-300 μM for 6a; 62.5-250 μM for 14), PBS pH 7.4
# [7] = Detection limit for CO of benzamide-based probes in degassed DMA; details: for LOD (limit of detection): DMA; for Detection limit: 3σ/K
# [8] = Signal-to-noise ratio (SNR) of CO probe molecules
# Stability in PBS = details: for Stability in PBS (in words): PBS pH 7.4; for Stability in PBS (time): 37 °C, HPLC
# [9] = Sensing selectivity for CO over other species; details: pH 7.4 PBS; other species 100 μM (thiol, persulfide, peroxide, NO2^−, glutathione, glutathione disulfide, cysteine, CN^−, hydrogen sulfide, HClO)
# [10] = CO concentration in liver and kidney tissue of dosed mice (14 or methanizer-FID-GC)
# [11] = Detection limit for CO of naphthamide-based probes in PBS; details: for Detection limit: probe 20 μM in PBS, 3σ/K
# HeLa cells [12] = experiment: Cytotoxicity in HeLa cells (CCK-8); details: less than 50 μM, within 24 h
# HeLa cells [13] = experiment: Fluorescence imaging of CO in live HeLa cells; details: 20 μM probe; for Fluorescence in live HeLa cells after treatment with CO: DAPI channel, control without CO showed none
# [14] = at 10 μM probe, emission spectrum area-based, >20 equiv. excessive CO
compound,measurement,setting,value
CCCCN1C(=O)c2cccc(N)c2C1=O,Φf (quantum yield),[1]; medium H2O,0.37
same,Φf (quantum yield),[1]; medium PBS (pH 7.4),0.37
same,Stability in serum,[2],stable in serum
CCCCN1C(=O)c2cccc(O)c2C1=O,Φf (quantum yield),[1]; medium PBS (pH 7.4),0.23
same,Stokes shift,[3],114 nm
same,pH dependency of fluorescence,[3],pH dependent
same,Stability in serum,[2],stable in serum
CCCCN1C(=O)c2cccc3c(OC)ccc(c23)C1=O,Φf (quantum yield),[1]; medium H2O,0.82
CCCCNC(=O)c1c(O)cccc1C(=O)OCC,Conversion to fluorescent product / fluorescence recovery with CO,[4],completely converted to 22 almost instantly
CCCCNC(=O)c1ccccc1O,λEm of protodepalladation species,[3],420 nm
same,λEx of protodepalladation species,[3],329 nm
CCCN1C(=O)c2cccc(N)c2C1=O,Φf (quantum yield),[1]; medium H2O,0.33
same,Φf (quantum yield),[1]; medium PBS (pH 7.4),0.33
same,pH dependency of fluorescence,[3],largely disappeared
same,Blue shift of maximum excitation and emission wavelengths compared to 22,[3]; compared to 22,about 10 nm
CCCN1C(=O)c2cccc(O)c2C1=O,Φf (quantum yield),[1]; medium PBS (pH 7.4),0.29
COC(=O)[C@]12CCC(C)(C)C[C@H]1[C@H]1C(=O)C=C3[C@@]4(C)C=C(C#N)C(=O)C(C)(C)[C@@H]4CC[C@@]3(C)[C@]1(C)CC2,Increase in fluorescence signal compared to DMSO vehicle control,"HeLa cells [5]; 0.3 μM CDDO-Me, 6 h",7.5%
same,HO-1 expression,HO-1,significantly increased HO-1 expression
[C-]#[O+],"COHb level, CO-oximeter reading","COHb; partial CO saturated blood, same sample as measured with 5a",8.2±0.45%
same,Increase in fluorescence signal compared to DMSO vehicle control,"HeLa cells [5]; 250 ppm CO gas, 2 h",about 28%
"(2-(butylcarbamoyl)-3-aminophenyl)(N^1,N^1,N^2,N^2-tetramethylethylenediamine) palladacycle trifluoromethanesulfonate salt",Reaction kinetics towards CO (in words),[6],faster response to CO when compared to the hydroxyl derivative 5a
same,LOD (limit of detection),[7],0.9 nM (DMA)
same,Detection limit,[7]; probe 100 μM in DMA,0.203 ppm
same,Detection limit,[7]; probe 1 mM in DMA,0.187 ppm
same,SNR,[8]; [14],"Probe concentration dependent, 405-fold at 10 μM (area-based)"
same,Fluorescence profile λem,[3],500 nm
same,Fluorescence profile λex,[3],386 nm
same,Aqueous/PBS solubility (in words),Solubility,more water soluble than compounds 14 and 31a
same,Solubility in PBS,Solubility,about 5 mM
(2-(butylcarbamoyl)-3-aminophenyl)(bipyridine) palladium(II) iodide,Reaction kinetics towards CO (in words),[6],"substantially increased reaction kinetics compared to 12, 11a, and 5a"
"(2-(butylcarbamoyl)-3-hydroxyphenyl)(N^1,N^1,N^2,N^2-tetramethylethylenediamine) palladacycle trifluoromethanesulfonate salt",LOD (limit of detection),[7],0.75 nM (DMA)
same,Detection limit,[7]; probe 100 μM in DMA,0.167 ppm
same,Detection limit,[7]; probe 1 mM in DMA,0.099 ppm
same,SNR,[8]; [14],"Probe concentration dependent, 262-fold at 10 μM (area-based)"
same,SNR,"[8]; probe concentration 10 μM, PBS",320 :1
same,SNR,"[8]; probe concentration 100 μM, PBS",exceeds 1200 :1
same,Stability in PBS (in words),Stability in PBS,stable in PBS solution
same,Fluorescence profile λem,[3],511 nm
same,Fluorescence profile λex,[3],397 nm
same,Fluorescence intensity,"COHb; 10 mM 5a, partial CO saturated mouse blood",117.48 a.u.
same,COHb level determined with 5a,"COHb; partial CO saturated mouse blood, fluorescence standard curve",7.9%
same,Solubility in PBS,Solubility,about 5 mM
"(2-(butylcarbamoyl)-3-hydroxyphenyl)(N^1,N^1,N^2,N^2-tetramethylethylenediamine) palladium(II) iodide",Reaction kinetics towards CO (in words),[6],the same as the 5a
same,Stability in PBS (in words),Stability in PBS,stable in PBS solution
same,Aqueous/PBS solubility (in words),Solubility,soluble
(2-(butylcarbamoyl)-3-hydroxyphenyl)(bipyridine) palladacycle trifluoromethanesulfonate salt,Reaction kinetics towards CO (in words),[6],much slower response to CO than 5a
same,2nd order reaction rate constant towards CO,[6],13.8 ± 1.4 M⁻¹ s⁻¹
"(2-(propylcarbamoyl)-3-aminophenyl)(N^1,N^1,N^2,N^2-tetramethylethylenediamine) palladium(II) iodide",Reaction kinetics towards CO (in words),[6],slower response to CO gas compared to 11a and the hydroxyl derivative 5a
(2-(propylcarbamoyl)-3-aminophenyl)(bipyridine) palladium(II) iodide,2nd order reaction rate constant towards CO,[6],220.6 ± 27.2 M⁻¹ s⁻¹
same,LOD (limit of detection),[7],0.5 nM (DMA)
same,Detection limit,[7]; probe 1 mM in DMA,0.1 ppm and 0.108 ppm
same,SNR (in words),"[8]; 1, 10 and 100 μM in PBS",excellent concentration-dependent SNR
same,SNR,[8]; [14],"Probe concentration dependent, 405-fold at 10 μM (area-based)"
same,Selectivity for CO,[9],selectivity for CO
same,Fluorescence profile λem,[3],500 nm
same,Fluorescence profile λex,[3],386 nm
same,Conversion to fluorescent product / fluorescence recovery with CO,[4],quantitative conversion of 14 to the fluorescent product 25; also recorded: quantitatively forms 25 and produces the same fluorescence intensity after incubation with CO gas
same,Agreement of tissue CO determination with GC-methanizer,[10],no statistical difference
same,Solubility in DMA (in words),Solubility; DMA,soluble in DMA
same,Solubility in PBS,Solubility,100 µM
(8-(butylcarbamoyl)-4-methoxynaphthyl)(bipyridine) palladacycle trifluoromethanesulfonate salt,Reaction kinetics towards CO (in words),[6],as fast as 14
same,LOD (limit of detection),[11]; 0.1% DMSO in PBS,2.06 nM (0.1% DMSO in PBS)
same,Detection limit,[11],2.06 nM
same,SNR,[8]; [14],"Probe concentration dependent, 157-fold at 10 μM (area-based)"
same,Selectivity for CO,[9],highly selective
same,Stability in PBS (time),Stability in PBS,at least 1 hour
same,Fluorescence profile λem,[3],459 nm
same,Fluorescence profile λex,[3],377 nm
same,Conversion to fluorescent product / fluorescence recovery with CO,[4],formation of the naphthalimide fluorescent product 34
same,Cytotoxicity,HeLa cells [12],no cytotoxicity
same,Fluorescence in live HeLa cells after treatment with CO,HeLa cells [13],strong blue fluorescence
same,Sensing of endogenous CO production,"HeLa cells [13]; HeLa, 0.3 μM CDDO-Me, 6 h, exposure 6 s",able to sense the increase in endogenous CO production
same,Aqueous/PBS solubility (in words),Solubility,improved aqueous solubility
same,Solubility in PBS,Solubility,50 µM
(8-(butylcarbamoyl)-4-methoxynaphthyl)(bipyridine) palladium(II) bromide,Detection limit,[11],2.74 nM
same,Selectivity for CO,[9],highly selective
same,Stability in PBS (time),Stability in PBS,at least 1 hour
same,Cytotoxicity,HeLa cells [12],no cytotoxicity
same,Fluorescence in live HeLa cells after treatment with CO,HeLa cells [13],strong blue fluorescence

# Several values for one entry are separate records, joined by “and”; a condition that tells them apart may be missing. Equal entries are not always repeated. Entries after “also recorded” stand apart in the source; their conditions may differ.
